# Laboratory results from patent US20060257400A1, “COMBINATION THERAPY” (Bristol-Myers Squibb Company, priority 2005, published 2006).
# System: Human L2987 lung carcinomas
# Assay: Antitumor testing, s.c. L2987 xenografts in nude mice
# Assay type: in vivo
# Conditions: athymic nude mice, s.c. L2987 tumors established at 100-200 mm^3; Compound I 100 mg/Kg daily; Erbitux 1 mg per mouse every three days, 5 doses; combination given essentially simultaneously
# Procedure: Compounds. Compound I was synthesized by Bristol-Myers Squibb (BMS) chemists. Cetuximab (also known as Erbitux®) was a gift of Imclone Systems, Inc. The antibody was dissolved in phosphate buffered saline for i.p. injection to mice. Compound I was administered to mice in a volume of 100 mg/kg of body weight based on the average weight of the mice in each group at the time of treatment. Cetuximab was administered in 0.25 ml on a per mouse basis.
# Animals. Athymic (“nude”) mice, 5-6 weeks of age, purchased from Harlan Sprague Dawley (Indianapolis, Ind.), were quarantined for ˜2 weeks before their use for tumor propagation and drug efficacy testing. They were fed food and water ad libitum. All studies involving these animals were conducted in accordance with NIH (Bethesda, Md.) and Bristol Myers-Squibb animal care and use guidelines.
# Tumors. Human L2987 lung carcinomas were maintained in nude mice by serial s.c. passage. All efficacy testing involved tumors implanted s.c. in nude mice. Treatment was initiated when tumors had become well established at between 100-200 mm^3.
# Compound I was administered in combination with Erbitux and compared to either agent dosed alone. Each compound was dosed on its optimal preclinical schedule and dose level. This included a daily regimen for Compound I at 100 mg/Kg while Erbitux was dosed at 1 mg per mouse every three days for a total delivery of 5 doses. […]
substance,measurement,value
cetuximab [Erbitux],delay of tumor growth to target tumor size of 500 mm^3 compared to vehicle treated control group,6 days
